# Most compounds without a hit are left out; they make up all but 0.46% or so of the library.
# HCMV UL50-53 inh: inhibitors of HCMV UL50-UL53 nuclear egress complex interaction | HTRF UL50-UL53 interaction, normalized percent inhibition | inhibition, % (test concentration not listed) | actives 0.15% (n = 190,000); in the data active means inhibition above about 27%, passing the limit was not always enough
# GIV Gai3 FP: inhibitors of GIV GBA-motif binding to rat Galpha-i3. actives 0.42% (n = 210,000). Galpha-i3/FITC-GIV peptide fluorescence polarization, 90 min; active compounds read low; scaled: aluminum fluoride 0%, vehicle 100%. AID 1224905. percent of control (FP), % (no concentration beside the values). P08753;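 active means replicate mean at 85% of control or lower, very high polarization wells dropped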;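 further: wells of about 15 µL received 100 nL stock; the first replicate is given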
# GIV Gai FP conf: GIV-Galpha-i3 inhibition, FP confirmation; FITC-GIV peptide binding to Galphai3, fluorescence polarization; active compounds read low; fluorescence polarization, mP at 100 µM; actives 38% (n = 580); shares compounds with GIV Gai3 FP;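 active means inhibition score of 15 or more, meaning 100 minus mean polarization as percent of control over three replicates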;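 further: lower mP means peptide displaced from Galphai3 so more inhibition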
# GIV-Gai AS conf: confirmation of inhibitors of GIV binding to human Galpha-i3; AID 1259351; AlphaScreen counts at 100 µM; actives 39% (n = 580); AlphaScreen Galphai3-GIV binding, purified proteins, 90 min; active compounds read low; shares compounds with GIV Gai3 FP;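 active means inhibition score at or above a set limit, where the score is 100 minus the three-replicate mean percent of control signal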
# A number is an active result; . = inactive; / = no result.
SMILES,HCMV UL50-53 inh,GIV Gai3 FP,GIV Gai FP conf,GIV-Gai AS conf
CCC(=O)Nc1nc2c(s1)C(=O)CC(c1ccc(OC)cc1)C2 (stereo not given),.,.,/,/
C(=N\c1ncn[nH]1)/c1ccccc1,.,.,/,/
CCOc1ccccc1NC(=O)NCCN1CCCc2ccccc21,.,.,/,/
O=C(Nc1nnc(-c2ccc3c(c2)OCCO3)o1)c1ccc(NS(=O)(=O)c2ccccc2)cc1,.,.,/,/
CC1CCN(S(=O)(=O)c2ccc3c(c2)N(CC(=O)NCc2ccccc2Cl)C(=O)CS3)CC1,/,.,/,/
O=C(CCCCCn1c(=O)[nH]c2ccccc2c1=O)N1CCN(c2ccc(Cl)cc2)CC1,/,.,/,/
Cc1cc(/C=C(/C#N)c2ccc(Cl)cc2)c(C)n1C(C)C,.,.,/,/
COc1ccc2[nH]c(=O)c(CN(Cc3cccnc3)C(=O)Nc3ccccc3)cc2c1,.,.,/,/
COc1ccc2c(c1)c(/C=C/c1nc3ccccc3c(=O)n1-c1cccc(C)c1)c(C)n2C,.,66,.,.
COc1ccc2c(c1)c(/C=C/c1nc3ccccc3c(=O)n1-c1ccccc1)c(C)n2C,.,.,/,/
Cc1ccc(C(=O)O)cc1NC1(c2ccccc2)C(=O)c2ccccc2C1=O,/,.,/,/
O=C(Cc1ccccc1)NC1(O)C(=O)c2ccccc2C1=O,50,61,52,.
O=C(NC1(O)C(=O)c2ccccc2C1=O)c1ccc(C(F)(F)F)cc1,58,56,.,.
Cc1ccc(C(=O)NC2(O)C(=O)c3ccccc3C2=O)cc1C,59,57,45,.
O=C(O)CNC(=O)Cc1ccccc1,.,.,/,/
O=C(NCCc1ccccc1)c1ccccn1,.,/,/,/
O=C(NO)c1ccc(C(F)(F)F)cc1,.,/,/,/
O=C(NC1(O)C(=O)c2ccccc2C1=O)c1ccccn1,.,74,.,.
Cc1cc2c(NC(=O)COCC(=O)O)cccc2nn1,.,73,55,16084
Cc1cc2c(NC(=O)CC(C)(C)CC(=O)O)cccc2nn1,.,.,/,/
COc1cc(OC)cc(-c2nnc(NC(=O)c3ccc(S(=O)(=O)N4COCC4(C)C)cc3)o2)c1,.,.,/,/
O=C(NCCn1c(-c2ccccc2)nc2cccnc21)c1ccc(Cl)cc1,.,.,/,/
CN(C)CCNC(=O)c1ccc(-n2c(-c3ccccc3)nc3cccnc32)cc1,.,83,.,.
Cc1nn(-c2ccc3nnc(C)n3n2)c(C)c1CCC(=O)Nc1ccc2c(c1)OCO2,/,.,/,/
CCOC(=O)N1CC=C2C(C#N)=C(N)C(C#N)(C#N)C(c3cccs3)C2C1 (stereo not given),/,.,/,/
SMILES,HCMV UL50-53 inh,GIV Gai3 FP,GIV Gai FP conf,GIV-Gai AS conf
CCN1C=CC2=C(C#N)C(N)C(C#N)(C#N)C(c3cccs3)C2C1 (stereo not given),.,65,.,.
O=C1C(NS(=O)(=O)c2ccccc2)=C/C(=N\S(=O)(=O)c2ccc(F)cc2)c2ccccc21,/,.,/,/
O=C(O)c1cccc(S(=O)(=O)/N=C2/C=C(NS(=O)(=O)c3ccccc3)C(=O)c3ccccc32)c1,/,63,.,12814
CCCN1CCC2(CC1)C1CN(CCC)CC=C1C(C#N)=C(N)C2(C#N)C#N (stereo not given),.,.,.,.
CCOc1ccc(C2C3CN(CC)CC=C3C(C#N)=C(N)C2(C#N)C#N)cc1 (stereo not given),/,.,/,/
CC1=CC(=C2C(=O)N(c3ccccc3)N=C2C)C=C(C)N1Cc1ccco1,.,/,/,/
CC1=CC(=C2C(=O)NC(=S)NC2=O)C=C(C)N1Cc1ccco1,.,73,48,2400
O=c1[nH]c2nonc2nc1/C=C(\O)c1ccccc1,.,.,/,/
NC(=O)NC(=O)c1nc2nonc2[nH]c1=O,.,44,42,.
Cc1cccc(C)c1OCc1nnc2c3cnn(Cc4ccccc4)c3ncn12,.,.,/,/
COc1cc(/C=C2\C(=O)NC(=O)N(C)C2=O)ccc1OCc1ccc(C(=O)O)cc1,.,.,/,/
O=C1NC(=S)NC(=O)C1=Cc1ccc(OCc2ccc(C(=O)O)cc2)c(Br)c1,.,.,11,2330
O=C(O)COc1ccc(/C=C2\C(=O)NC(=S)N(c3ccc(Cl)cc3)C2=O)cc1Br,.,73,34,.
O=C(O)COc1ccc(/C=C2\C(=O)NC(=S)N(c3ccc(F)cc3)C2=O)cc1Br,.,.,/,/
COc1cc(/C=C2/C(=O)N(c3ccccc3)N=C2C)ccc1OS(=O)(=O)c1ccccc1,42,81,60,21149
COc1cc(/C=C2\C(=O)N(c3ccc(S(N)(=O)=O)cc3)N=C2C)ccc1OCc1ccccc1,/,.,/,/
O=C(NCCc1ccccc1)NCCn1c(C(F)(F)F)nc2cccnc21,.,.,/,/
COC(=O)CNC(=O)NCCCn1c(C(F)(F)F)nc2cccnc21,.,80,59,.
O=C(Nc1cccc(-c2nc3ccccc3o2)c1)C(F)(F)F,.,70,.,.
CCC(=O)Nc1cccc(-c2nc3ccccc3o2)c1,.,/,/,/
Cc1ccc(C)c(NC(=O)CSc2nc(=O)n(CCN(C)C)c3c2CCC3)c1,/,.,/,/
COc1ccc(NC(=O)c2sc3nc4c(c(-c5ccc(OC)cc5)c3c2N)C(=O)CC(C)(C)C4)cc1,.,70,.,.
Nc1c(C(=O)N2CCOCC2)sc2nc(-c3cccs3)cc(C(F)(F)F)c12,/,.,/,/
COc1ccc(-c2c3c(nc4sc(C(=O)Nc5cccc(OC)c5)c(N)c24)CC(C)(C)CC3=O)cc1,.,.,/,/
COc1ccc(NC(=O)c2sc3nc(C)cc(C(F)(F)F)c3c2N)cc1,/,.,/,/
SMILES,HCMV UL50-53 inh,GIV Gai3 FP,GIV Gai FP conf,GIV-Gai AS conf
COc1cccc(NC(=O)c2sc3nc4c(c(-c5ccc(C)o5)c3c2N)CCCC4)c1,/,.,/,/
Cc1cc(C(F)(F)F)c2c(N)c(C(=O)Nc3ccc(F)cc3)sc2n1,.,61,.,.
COc1cccc(NC(=O)c2sc3nc4c(c(-c5ccco5)c3c2N)CCC4)c1,/,85,.,.
COc1ccc(NC(=O)c2sc3nc(-c4cccs4)cc(C(F)(F)F)c3c2N)cc1,/,75,.,.
COc1cc(OC)cc(C(=O)Nc2ccccc2-c2nc3ccccc3s2)c1,.,.,/,/
COC(=O)c1c(C)nn(-c2ccc(C)cc2)c1N,.,.,/,/
O=C1CCCN1CP(=O)(O)CCc1ccccc1,.,.,/,/
CC(C)c1ccc2oc3nc(N)c(C#N)cc3c(=O)c2c1,.,.,/,/
CCc1c(C#N)c(N)nc2sc(C(=O)Nc3ccc(Br)cc3)c(N)c12,.,/,/,/
Nc1c(C(=O)NC2CC2)sc2nc(-c3cccs3)cc(C(F)(F)F)c12,/,45,.,.
CCOc1ccc(-c2c(C#N)c(N)nc3sc(C(=O)Nc4ccc(Br)cc4)c(N)c23)cc1,.,.,.,.
Nc1c(C(=O)N2CCCCC2)sc2nc(-c3cccs3)cc(C(F)(F)F)c12,.,/,/,/
Cc1c(S(=O)(=O)c2ccc(Cl)cc2)csc1C(=O)NCc1ccco1,.,.,/,/
CCN(CC)C(=O)Cn1cc(/C=C(\C#N)C(N)=O)c2ccccc21,.,.,/,/
COc1ccc(-c2csc3nccn23)cc1,.,/,/,/
CCOC(=O)[C@@H]1Nc2ccc(Br)cc2[C@@H]2C=CC[C@H]12,.,.,/,/
CCOC(=O)[C@@H]1Nc2ccc(C(=O)O)cc2[C@@H]2C=CC[C@H]12,/,63,50,2184
O=C(Cc1n[nH]c(=O)[nH]c1=O)N/N=C/c1ccccc1,.,.,/,/
